In ChEMBL document CHEMBL3621128, “Synthesis and biological evaluation of 2-alkyl-2-methoxymethyl-salvinorin ethers as selective κ-opioid receptor agonists” (2015) one finds inhibition and Emax data, which are given here for 8 compounds.

Protein sequences, listed by entry. Tags and fused reporters are not part of them. Lines headed by an entry give the natural chain unless they say otherwise; changes in a name come on top.
UniProt P41145: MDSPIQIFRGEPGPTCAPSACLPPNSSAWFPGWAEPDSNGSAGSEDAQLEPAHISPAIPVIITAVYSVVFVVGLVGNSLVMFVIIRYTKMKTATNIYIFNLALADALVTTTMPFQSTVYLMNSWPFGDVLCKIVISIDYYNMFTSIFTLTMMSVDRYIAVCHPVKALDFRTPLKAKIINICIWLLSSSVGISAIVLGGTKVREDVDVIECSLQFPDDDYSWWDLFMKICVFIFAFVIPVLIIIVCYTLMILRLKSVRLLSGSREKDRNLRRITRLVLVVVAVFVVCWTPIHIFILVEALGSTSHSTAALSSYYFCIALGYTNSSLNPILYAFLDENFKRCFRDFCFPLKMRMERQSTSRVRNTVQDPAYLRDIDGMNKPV
UniProt P33535, whole entry, looked up: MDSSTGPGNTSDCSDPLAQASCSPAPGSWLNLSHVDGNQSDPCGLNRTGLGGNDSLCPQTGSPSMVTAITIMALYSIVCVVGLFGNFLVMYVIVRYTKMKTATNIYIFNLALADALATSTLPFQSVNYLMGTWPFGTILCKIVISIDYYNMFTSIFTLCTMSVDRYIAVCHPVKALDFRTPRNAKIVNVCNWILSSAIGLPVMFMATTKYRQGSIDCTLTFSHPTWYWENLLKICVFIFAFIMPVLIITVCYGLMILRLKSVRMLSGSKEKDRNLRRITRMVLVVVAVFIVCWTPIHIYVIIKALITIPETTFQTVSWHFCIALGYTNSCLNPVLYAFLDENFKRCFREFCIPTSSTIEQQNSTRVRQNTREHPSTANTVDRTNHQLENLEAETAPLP
UniProt P32300, whole entry, looked up: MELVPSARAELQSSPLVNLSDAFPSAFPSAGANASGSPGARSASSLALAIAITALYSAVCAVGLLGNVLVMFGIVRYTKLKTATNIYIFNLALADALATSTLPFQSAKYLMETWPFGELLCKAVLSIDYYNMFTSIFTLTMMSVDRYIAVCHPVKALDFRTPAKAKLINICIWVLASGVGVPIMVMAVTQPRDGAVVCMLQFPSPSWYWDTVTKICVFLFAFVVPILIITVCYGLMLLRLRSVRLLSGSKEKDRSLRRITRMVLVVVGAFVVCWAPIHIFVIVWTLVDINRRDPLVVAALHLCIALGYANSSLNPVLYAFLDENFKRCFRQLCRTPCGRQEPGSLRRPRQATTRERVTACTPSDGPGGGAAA

The target in assay [1] is Kappa-type opioid receptor (Homo sapiens) (UniProt P41145). Kind of assay: Displacement of [3H]diprenorphine from human kappa opioid receptor expressed in CHO cell membranes at 3 uM.
Assay [2] shares this target. Kind of assay: Agonist activity at human kappa opioid receptor expressed in CHO cell membranes assessed as stimulation of [35S]GTPgammaS binding relative to U50,488H. A general note: GTPγS is a poorly hydrolysed GTP analogue; its binding reports G protein activation.
Assay [3] deals with Mu-type opioid receptor (Rattus norvegicus) (UniProt P33535). In words: Displacement of [3H]diprenorphine from rat mu opioid receptor expressed in CHO cell membranes Displacement of [3H]diprenorphine from human kappa opioid receptor expressed in CHO cell membranes at 3 uM. (In general: Loss of bound radioactivity is the signal in a displacement assay; it reports binding, not function.)

Assay [4] addresses Delta-type opioid receptor (Mus musculus) (UniProt P32300). Kind of assay: Displacement of [3H]diprenorphine from FLAG-tagged mouse delta opioid receptor expressed in CHO cell membranes Displacement of [3H]diprenorphine from human kappa opioid receptor expressed in CHO cell membranes at 3 uM.

Broadly, the inhibition is the percentage by which the read-out fell short of the control. What is called Emax is the size of the effect at its maximum, as opposed to the concentration needed.

Turning to `COC(=O)[C@@H]1C[C@H](O)C(=O)[C@H]2[C@@]1(C)CC[C@H]1C(=O)O[C@H](c3ccoc3)C[C@]21C`, the inhibition in assay [1], in assay [3] and in assay [4] was more than 50% each time. Moreover, the Emax in assay [2] was 115%.

For the compound `COC(=O)[C@@H]1C[C@H](OC(C)=O)C(=O)[C@H]2[C@@]1(C)CC[C@H]1C(=O)O[C@H](c3ccoc3)C[C@]21C`, the inhibition in assay [3] and in assay [4] was more than 50% throughout.

The compound `COC[C@@]1(C)C[C@@H](C(=O)OC)[C@]2(C)CC[C@@H]3C(=O)O[C@H](c4ccoc4)C[C@]3(C)[C@H]2C1=O` registered an inhibition in assay [4] of more than 50%.

Compound `COC[C@@]1(C)C[C@@H](C(=O)OC)[C@]2(C)CC[C@H]3C(=O)O[C@H](c4ccoc4)C[C@]3(C)[C@H]2C1=O` gave an inhibition in assay [4] of more than 50%.

For the compound `COC[C@@]1(CCCCCI)C[C@@H](C(=O)OC)[C@]2(C)CC[C@H]3C(=O)O[C@H](c4ccoc4)C[C@]3(C)[C@H]2C1=O`, the inhibition in assay [4] was more than 50%.

Consider `COC[C@@]1(CCOCCI)C[C@@H](C(=O)OC)[C@]2(C)CC[C@H]3C(=O)O[C@H](c4ccoc4)C[C@]3(C)[C@H]2C1=O`, for which, in assay [1], the inhibition is more than 50%.

As to `COC[C@@]1(CCCCCI)C[C@@H](C(=O)OC)[C@]2(C)CC[C@@H]3C(=O)O[C@H](c4ccoc4)C[C@]3(C)[C@H]2C1=O`, the inhibition in assay [4] was more than 50%.

Compound `COC[C@@]1(CCOCCI)C[C@@H](C(=O)OC)[C@]2(C)CC[C@@H]3C(=O)O[C@H](c4ccoc4)C[C@]3(C)[C@H]2C1=O` came in with an inhibition in assay [1] of more than 50%.
